This assay deals with T1, recombinant human HDAC8 (Homo sapiens, UniProt Q9BY41).
T1 construct: made in house
T1 sequence (Q9BY41 1-377): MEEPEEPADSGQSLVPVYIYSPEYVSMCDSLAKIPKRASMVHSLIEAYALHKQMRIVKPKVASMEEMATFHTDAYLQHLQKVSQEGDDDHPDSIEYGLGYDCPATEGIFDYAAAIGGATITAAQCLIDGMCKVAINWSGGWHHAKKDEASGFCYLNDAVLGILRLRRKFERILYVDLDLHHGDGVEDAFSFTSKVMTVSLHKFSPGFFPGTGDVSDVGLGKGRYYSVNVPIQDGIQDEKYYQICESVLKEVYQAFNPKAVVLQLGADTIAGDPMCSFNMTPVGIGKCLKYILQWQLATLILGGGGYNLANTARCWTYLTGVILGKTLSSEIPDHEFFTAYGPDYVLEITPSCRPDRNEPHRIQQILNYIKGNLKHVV
The assay is described as follows: HDAC8 in vitro inhibition assay (Fluor de Lys kit). The format is biochemical. The settings on record: IC50 (µM) ± SE HDAC8, recombinant human HDAC8, Fluor de Lys-HDAC8 substrate 50 µM, 90 min 37 °C. An excerpt: In order to investigate a potential subtype selectivity among different HDAC classes, we first tested them against the recombinant histone deacetylases HDAC1 (class I) and HDAC6 (class llb). […] To further address this issue, we also tested the respective compounds against the class l histone deacetylase HDAC8 (also see Table 1).
Recombinant human HDAC1 and 6 were purchased from BPS Biosciences (San Diego, CA, USA), and recombinant human HDAC8 was produced as described before. Inhibition tests of human HDAC1 and 6 were conducted using carboxybenzyl acetyllysine aminomethylcoumarin (ZMAL) as a substrate. […] For testing of HDAC8, the commercial Fluor de Lys drug discovery kit (BML-KI178) (Enzo Life Sciences, Lausen, Switzerland) was used according to the manufacturer’s instruction. Briefly, the test compound, Fluor de Lys-HDAC8 substrate (50 μM), and enzyme were incubated for 90 min at 37 °C with subsequent addition of 50 μL of Developer II (BML-KI176) (Enzo Life Sciences, Lausen, Switzerland) and further incubation for 45 min at 30 °C. In both assays, trichostatin A (2 μM) was used to stop the reaction. Fluorescence in both cases was measured in a plate reader (BMG Polarstar, BMG Labtech, Ortenberg, Germany) with excitation at λ = 390 nm and emission at λ = 460 nm.

Several values for one entry are separate records, joined by “and”; a condition that tells them apart may be missing. Equal entries are not always repeated.

As a reminder, the IC50 is the concentration needed to halve the response being measured. As to `O=C(CCCCCCC(=O)Nc1ccccc1)NO` [SAHA (1), N-hydroxy-N′-phenyloctanediamide, reference compound], the IC50 was 5.7 µM and 5.74 µM.

These data come from article PMC6017415, “Carbamates as Potential Prodrugs and a New Warhead for HDAC Inhibition” (Molecules : A Journal of Synthetic Chemistry and Natural …, 2018).
